Test results published in BindingDB's records for doi:10.1021/acschembio.6b00677 (Pfizer, 2016).

Key:
[1] = molecular target: T1, Tyrosine-protein kinase ITK/TSK (Homo sapiens, UniProt Q08881); test: Test compounds were solubilized in dimethyl sulfoxide (DMSO) to a stock concentration of 30 mM. Compounds were diluted in DMSO to create an 11-point half log dilution series with a top concentration of 600 μM. […] The compound plates were diluted 1 to 60 in the assay, resulting in a final assay compound concentration range of 10 μM to 100 pM and a final assay concentration of 1.7% DMSO. Test compounds and controls solubilized in 100% DMSO were added (250 nL) to a 384 well polypropylene plate (Matrical) using anon contact acoustic dispenser. Kinase assays were carried out at room temperature in a 15 μL reaction buffer containing 20 mM HEPES, pH 7.4, 10 mM magnesium chloride, 0.01% bovine serum albumin (BSA), 0.0005% Tween 20 and 1mM Dithiothreitol (DTT). Reaction mixtures contained 1 μM o; details: 25 °C
T1 sequence (Q08881 whole entry): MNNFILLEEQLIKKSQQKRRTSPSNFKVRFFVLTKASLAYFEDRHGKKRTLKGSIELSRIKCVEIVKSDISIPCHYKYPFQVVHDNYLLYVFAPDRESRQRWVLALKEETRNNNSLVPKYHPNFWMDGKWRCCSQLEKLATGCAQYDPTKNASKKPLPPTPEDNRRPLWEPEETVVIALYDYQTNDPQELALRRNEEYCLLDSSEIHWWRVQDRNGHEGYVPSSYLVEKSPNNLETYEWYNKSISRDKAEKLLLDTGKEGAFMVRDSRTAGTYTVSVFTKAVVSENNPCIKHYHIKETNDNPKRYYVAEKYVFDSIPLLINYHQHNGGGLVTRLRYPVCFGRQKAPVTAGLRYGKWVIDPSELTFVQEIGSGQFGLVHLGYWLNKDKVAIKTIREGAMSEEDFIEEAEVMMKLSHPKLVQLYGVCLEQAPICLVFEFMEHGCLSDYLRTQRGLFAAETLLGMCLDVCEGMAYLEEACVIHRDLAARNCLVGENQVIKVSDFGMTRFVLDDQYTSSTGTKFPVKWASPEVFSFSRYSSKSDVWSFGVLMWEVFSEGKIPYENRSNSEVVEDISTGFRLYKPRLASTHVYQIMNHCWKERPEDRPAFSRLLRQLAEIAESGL

[2] = molecular target: T1, Tyrosine-protein kinase ITK/TSK; test: TR-FRET Competition Assay; details: pH 7.5
Procedure: Assay buffer was 20 mM HEPES, pH 7.5, 10 mM MgCl2, 0.01% BSA, 1 mM DTT, 0.0005% Tween 20, and 2% DMSO. […] The assays were read using an EnVi

## C=CC(=O)N1C[C@H](Nc2ncnc3[nH]ccc23)CC[C@@H]1C [PF-06651600]
[1]
  IC50: 8.51 µM
[2]
  Ki: 0.0269 nM
